Experimental data taken from patent US10167295B2 (priority 2013, dated 2019).
Like-named read-outs stand apart in the source and are kept apart here.

Experiments:
DOR = DOR (Homo sapiens, UniProt P41143); test: Primary binding (PDSP); settings: for DOR mean % inhibition: 10 μM, N = 4 determinations, negative = stimulation of binding; for DOR: Table 7, rounded values of Table 4
NOP = NOP (Homo sapiens, UniProt P41146); test: Functional NOP agonism, Tango agonist assay; type: cell-based; settings: for NOP Tango Agonist: Table 7, values of Table 6; for NOP Tango Agonist, percent efficacy relative to cognate agonist: test compound at 10 micromolar
KOR [1] = target: T1, KOR (Homo sapiens, UniProt P41145); test: Primary binding (PDSP); settings: for KOR mean % inhibition: 10 μM, N = 4 determinations, negative = stimulation of binding; for KOR: Table 7, rounded values of Table 4
KOR [2] = target: T1, KOR; test: Radioligand competition binding, Ki (PDSP); settings: read-out: KOR Ki
[3] = Cheng-Prusoff from best fit IC50

SMILES	DOR mean % inhibition (DOR)	DOR (DOR)	NOP Tango Agonist (NOP)	NOP Tango Agonist, percent efficacy relative to cognate agonist (NOP) [%]	KOR mean % inhibition (KOR [1]) [%]	KOR (KOR [1])	Ki (KOR [2]; [3]) [nM]	Ki (KOR [2]; Table 7, values of Table 5) [nM]
CN(C(=O)Cc1cccc2occc12)[C@@H](CN1CCCC1)c1ccccc1	−1.8(AVE) %	−2	0.9	0.9				
CCn1c(=O)n([C@H]2CCCC[C@@H]2N2CCCC2)c2ccccc21	0.2677%	0	−3.9	−3.9				
CN(C(=O)Cc1ccccc1)[C@@H](CN1CCCC1)c1ccccc1	43.8(AVE) %	44	−4.3	−4.3				
CN(C(=O)Cc1ccccc1)[C@H](CN1CCCC1)c1ccccc1	12.9266%	13	−3.4	−3.4				
O=C(Cc1cccc2occc12)N1CCCC[C@H]1CN1CCCC1	2.785%	3	−0.2	−0.2				
O=C(C1CCCN1Cc1ccccc1)N1CCCC[C@H]1CN1CCCC1 (stereo partly drawn)	−9.301%	−9	−5	−5				
CN(C(=O)Cc1ccc2occc2c1)[C@H](CN1CCCCC1)c1ccccc1	25.7477%	26	−3.3	−3.3				
Cc1cccc(CC(=O)N(C)[C@H](CN2CCCC2)c2ccccc2)c1	36.7658%	37	−2.6	−2.6				
CN(C(=O)c1ccc(Cl)cc1)[C@@H](CN1CCCC1)c1ccccc1	4.2(AVE) %	4	1.7	1.7				
CN(C(=O)C1CCCN1Cc1ccccc1)[C@@H](CN1CCCC1)c1ccccc1 (stereo partly drawn)	2.5(AVE) %	3	−2.7	−2.7				
CN(C(=O)Cc1cccc2occc12)[C@H](CN1CCCCC1)c1ccccc1	23.357%	23	−4.2	−4.2				
O=C(c1ccccc1)N1CCCC[C@H]1CN1CCCC1	−2.377%	−2	−2.3	−2.3	54.3	54	1230	1230
CN(C(=O)c1ccc(Cl)cc1)[C@H](CN1CCCC1)c1ccccc1	9.971%	10	−3.3	−3.3	99.2	99	2330	2330
CN(C(=O)C1CCCN1Cc1ccccc1)[C@@H](CN1CCCCC1)c1ccccc1 (stereo partly drawn)	−0.4943%	0	0	0	98.2	98	98	98
CN(C(=O)Cc1ccc(Cl)c(Cl)c1)[C@@H](CN1CCCCC1)c1ccccc1	12.4(AVE) %	12	0.7	0.7				
O=C(Cc1ccc2c(c1)OCO2)N1CCCC[C@H]1CN1CCCC1	4.506%	5	−2.2	−2.2	99.6	100	1.2	1.2
CN1CC(C(=O)N(C)[C@H](CN2CCCC2)c2ccccc2)CC1=O (stereo partly drawn)	−5.153%	−5	−4	−4	97.9	98	64	64
O=C(CCN1CCc2ccccc21)N1CCCC[C@H]1CN1CCCC1	−8.611%	−9	9	9	96.7	97	40	40
Cc1cccc(CC(=O)N(C)[C@H](CN2CCCCC2)c2ccccc2)c1	8.848%	9	1.1	1.1	99.6	100	0.6	0.6
CN(C(=O)CCN1CCC2(CCc3ccccc32)CC1)[C@H]1CCCC[C@@H]1N1CCCC1	−7.128%	−7	−5	−5	68.1	68	> 10000	> 10000
O=C(Cc1ccccc1)N1CCCC[C@H]1CN1CCCC1	−4.482%	−4	0.2	0.2	98.7	99	9.6	9.6
